According to publication PMC8953592, “Mechanism of Action and Therapeutic Potential of the β-Hairpin Antimicrobial Peptide Capitellacin from the Marine Polychaeta Capitella teleta” (Marine Drugs, 2022):

What was measured:
Bacillus subtilis B-886 = assay: MIC, two-fold serial dilutions; conditions: MH medium with 0.9% NaCl, 0.1% BSA, 5 × 10^5 CFU/mL, 37 °C, 24 h
[1] = tested on: Micrococcus luteus B-1314; assay: MIC, two-fold serial dilutions; conditions: MH medium with 0.9% NaCl, peptides diluted in 0.1% BSA, 5 × 10^5 CFU/mL, 37 °C, 24 h

Row | SMILES | Minimum Inhibitory Concentration (Bacillus subtilis B-886) [µM] | Minimum Inhibitory Concentration [1] [µM]
1 | CC[C@H](C)[C@@H]1NC(=O)[C@@H](NC(=O)[C@@H](NC(=O)[C@H](CCCNC(=N)N)NC(=O)[C@@H]2CCCN2C(=O)[C@H](CO)NC(=O)[C@@H](N)CCCNC(=N)N)C(C)C)CSSC[C@@H](C(=O)N[C@@H](Cc2c[nH]c3ccccc23)C(=O)NCC(=O)O)NC(=O)[C@H](CCCNC(=N)N)NC(=O)[C@H](CCCNC(=N)N)NC(=O)[C@H](Cc2ccc(O)cc2)NC(=O)[C@@H]2CSSC[C@H](NC(=O)[C@H](C(C)C)NC(=O)[C@H](CCCNC(=N)N)NC1=O)C(=O)N[C@@H](CCCNC(=N)N)C(=O)N[C@@H](CC(N)=O)C(=O)NCC(=O)N[C@@H](C(C)C)C(=O)N2 [CT2] | 8 | 1
2 | CC[C@H](C)[C@@H]1NC(=O)[C@@H](NC(=O)[C@@H](NC(=O)[C@H](CCCNC(=N)N)NC(=O)[C@@H]2CCCN2C(=O)[C@@H](N)CO)C(C)C)CSSC[C@@H](C(=O)N[C@@H](Cc2c[nH]c3ccccc23)C(=O)O)NC(=O)[C@H](CCCNC(=N)N)NC(=O)[C@H](CCCNC(=N)N)NC(=O)[C@H](Cc2ccc(O)cc2)NC(=O)[C@@H]2CSSC[C@H](NC(=O)[C@H](C(C)C)NC(=O)[C@H](CCCNC(=N)N)NC1=O)C(=O)N[C@@H](CCCNC(=N)N)C(=O)N[C@@H](CC(N)=O)C(=O)NCC(=O)N[C@@H](C(C)C)C(=O)N2 [CT3] | 32 | 4
3 | CC[C@H](C)[C@@H]1NC(=O)[C@@H](NC(=O)[C@@H](NC(=O)[C@H](CCCNC(=N)N)NC(=O)[C@@H]2CCCN2C(=O)[C@@H](N)CO)C(C)C)CSSC[C@@H](C(=O)N[C@@H](Cc2c[nH]c3ccccc23)C(=O)NCC(=O)O)NC(=O)[C@H](CCCNC(=N)N)NC(=O)[C@H](CCCNC(=N)N)NC(=O)[C@H](Cc2ccc(O)cc2)NC(=O)[C@@H]2CSSC[C@H](NC(=O)[C@H](C(C)C)NC(=O)[C@H](CCCNC(=N)N)NC1=O)C(=O)N[C@@H](CCCNC(=N)N)C(=O)N[C@@H](CC(N)=O)C(=O)NCC(=O)N[C@@H](C(C)C)C(=O)N2 [Cap, capitellacin] | 16 | 4
4 | CC[C@H](C)[C@@H]1NC(=O)[C@@H](NC(=O)[C@@H](NC(=O)[C@@H](N)CCCNC(=N)N)C(C)C)CSSC[C@@H](C(=O)N[C@@H](Cc2c[nH]c3ccccc23)C(=O)O)NC(=O)[C@H](CCCNC(=N)N)NC(=O)[C@H](CCCNC(=N)N)NC(=O)[C@H](Cc2ccc(O)cc2)NC(=O)[C@@H]2CSSC[C@H](NC(=O)[C@H](C(C)C)NC(=O)[C@H](CCCNC(=N)N)NC1=O)C(=O)N[C@@H](CCCNC(=N)N)C(=O)N[C@@H](CC(N)=O)C(=O)NCC(=O)N[C@@H](C(C)C)C(=O)N2 [CT4] | 16 | 4
5 | CC(C)[C@@H]1NC(=O)CNC(=O)[C@H](CC(N)=O)NC(=O)[C@H](CCCNC(=N)N)NC(=O)[C@@H]2CSSC[C@H](NC1=O)C(=O)N[C@@H](Cc1ccc(O)cc1)C(=O)N[C@@H](CCCNC(=N)N)C(=O)N[C@@H](CCCNC(=N)N)C(=O)N[C@H](C(=O)N[C@@H](Cc1c[nH]c3ccccc13)C(=O)O)CSSC[C@H](NC(=O)[C@@H](NC(=O)[C@@H](N)CCCNC(=N)N)C(C)C)C(=O)N[C@@H](Cc1ccccc1)C(=O)N[C@@H](CCCNC(=N)N)C(=O)N[C@@H](C(C)C)C(=O)N2 [CT6] | 16 | 4
